Assay [1] addresses Bifunctional dihydrofolate reductase-thymidylate synthase (Plasmodium falciparum K1, UniProt P13922, C59R/I164L/S108N). In words: Binding affinity towards mutant dihydrofolate reductase (C59R+S108N+I164L DHFR) of Plasmodium falciparum.
The target of assay [2] is Bifunctional dihydrofolate reductase-thymidylate synthase (Plasmodium falciparum K1, UniProt P13922, C59R/N51I/S108N). In words: Binding affinity towards mutant dihydrofolate reductase (N51I+C59R+S108N DHFR) of Plasmodium falciparum.
The target of assay [3] is Bifunctional dihydrofolate reductase-thymidylate synthase (Plasmodium falciparum K1, UniProt P13922). In words: Binding affinity towards wild-type dihydrofolate reductase of Plasmodium falciparum.
For assay [4], the target named is Bifunctional dihydrofolate reductase-thymidylate synthase (Plasmodium falciparum K1, UniProt P13922, C59R/I164L/N51I/S108N). In words: Binding affinity towards mutant dihydrofolate reductase (N51I+C59R+S108N+I164L DHFR) of Plasmodium falciparum.
Assay [5] concerns the target Bifunctional dihydrofolate reductase-thymidylate synthase (Plasmodium falciparum K1, UniProt P13922, A16V/S108T). In words: Binding affinity towards mutant dihydrofolate reductase (A16V+S108T DHFR) of Plasmodium falciparum. An outline of the steps: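 Wild-type and mutant PfDHFR were expressed in E. coli BL21(DE3)pLysS. Enzyme was purified on methotrexate-Sepharose. Ki was calculated assuming inhibitors compete with substrate at the active site.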

Chains of the proteins cited; added tags and fusions are not shown.
UniProt P13922, whole entry, looked up, stated change not applied: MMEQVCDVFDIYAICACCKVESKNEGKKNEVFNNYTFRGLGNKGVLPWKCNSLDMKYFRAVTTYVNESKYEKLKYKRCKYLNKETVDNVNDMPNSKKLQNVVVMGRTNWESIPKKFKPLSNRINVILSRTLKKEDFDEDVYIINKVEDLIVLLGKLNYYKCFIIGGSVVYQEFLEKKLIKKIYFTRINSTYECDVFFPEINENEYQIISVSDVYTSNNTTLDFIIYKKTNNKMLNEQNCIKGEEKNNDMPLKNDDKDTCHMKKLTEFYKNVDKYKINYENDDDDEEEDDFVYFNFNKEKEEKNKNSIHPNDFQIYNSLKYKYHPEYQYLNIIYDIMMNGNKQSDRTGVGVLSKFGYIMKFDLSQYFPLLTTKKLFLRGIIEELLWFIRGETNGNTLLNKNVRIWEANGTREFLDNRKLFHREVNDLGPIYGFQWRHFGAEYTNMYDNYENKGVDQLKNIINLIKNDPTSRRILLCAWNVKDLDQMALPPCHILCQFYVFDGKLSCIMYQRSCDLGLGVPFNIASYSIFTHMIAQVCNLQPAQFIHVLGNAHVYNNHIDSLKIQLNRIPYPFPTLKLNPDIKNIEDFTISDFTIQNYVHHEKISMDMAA

Structures are written as SMILES.

As a reminder, the Ki is the dissociation constant of the complex between target and ligand, obtained from inhibition or displacement. Low readings indicate a stronger hold on the target, high ones a looser hold on the target. As for `CC1N=C(N)N=C(N)N1c1cccc(Cl)c1` (centres undefined), the inhibition constant (Ki) is 9.9 nM in assay [1], 4.2 nM in assay [2], 10.2 nM in assay [3] and 14.3 nM in assay [4].
With `CC1(C)N=C(N)N=C(N)N1c1cccc(Cl)c1`, the Ki came to 308 nM in assay [5], 14 nM in assay [1], 2.2 nM in assay [2] and 25 nM in assay [4].
Consider `NC1=NC(c2ccccc2)N(c2ccc(Cl)cc2)C(N)=N1` (centres undefined), for which affinity in assay [3] was put at a Ki of 4.5 nM.

For the origin of these results see ChEMBL document CHEMBL1138835, “Inhibitors of multiple mutants of Plasmodium falciparum dihydrofolate reductase and their antimalarial activities” (J Med Chem, 2004).
